Reference: patent US11660265B2, “Method of rapidly achieving therapeutic concentrations of triptans for treatment of migraines and cluster headaches” (ZP Opco, Inc., priority 2018, dated 2023)

Assay: Phase 1 human PK study (plasma zolmitriptan, N-desmethyl zolmitriptan, sumatriptan)
Settings: plasma N-desmethyl zolmitriptan metabolite
Protocol: The final treatment administered was 3.8 mg on a 10 cm^2 patch using an applicator with 0.52 Joule of application energy in the intracutaneous microneedle system described herein. The products tested were:
This was a single-center, open-label, randomized five-way crossover study (Part 1) followed by a sequential study of two additional treatments (Parts 2 and 3). After obtaining informed consent and establishing eligibility, each subject received each of the seven study treatments once, followed by in-clinic monitoring and extensive blood sample collection for pharmacokinetic analysis. […] Plasma samples from the initial dosing days were sent to the analytical laboratory for analysis, and tolerability for each of the dose levels was summarized. […] During Part 3, subjects received a single 3.8 mg patch (applied with a 0.52 J applicator) and also completed identical procedures to the previous dosing days. After completion of the seven dosing days, subjects were assessed one final time and dismissed from the study.
Twenty subjects were enrolled in the study, 10 males and 10 females. The subjects mean age was 29 years±3.5 years with a mean BMI of 24.4±3.5.
PK parameters were summarized by treatment group using descriptive statistics (arithmetic means, standard deviations, coefficients of variation, sample size, minimum, maximum, and median).

zolmitriptan [Zolmitriptan 2.5 mg Oral Tablet]
t1/2, Mean: 192.9
t1/2, Median: 164.6
